Measurements reported in article PMC7221417 (European journal of medicinal chemistry, 2020).

Tested on: H295R cells (adrenocortical carcinoma)
Assay: Sulforhodamine B
Details: 1 μM, incubated for 1.5 h

Substance: RuCp(PPh3)2(ATZ)BF4 [Complex 2]
- cytotoxicity in H295R cells on short incubation: slightly cytotoxic
